Data as given in patent publication US20200299400A1 (published 2020).

T1: human GITR on cells (human, UniProt Q9Y5U5 26-241)
T1 chain: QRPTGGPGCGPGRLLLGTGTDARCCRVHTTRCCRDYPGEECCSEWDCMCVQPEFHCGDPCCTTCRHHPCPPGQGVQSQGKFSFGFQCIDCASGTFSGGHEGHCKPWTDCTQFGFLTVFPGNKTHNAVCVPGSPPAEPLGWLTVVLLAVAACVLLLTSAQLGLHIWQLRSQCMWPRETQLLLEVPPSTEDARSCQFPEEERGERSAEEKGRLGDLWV

B1: anti-GITR-IgG1 (antibody)
heavy: QVQLVESGGGVVQPGRSLRLSCAASGFTFSSYGMHWVRQAPGKGLEWVAVIWYEGSNKYYADSVKGRFTISRDNSKNTLYLQMNSLRAEDTAVYYCARGGSMVRGDYYYGMDVWGQGTTVTVSSASTKGPSVFPLAPSSKSTSGGTAALGCLVKDYFPEPVTVSWNSGALTSGVHTFPAVLQSSGLYSLSSVVTVPSSSLGTQTYICNVNHKPSNTKVDKKV[left out - human IgG1 Fc]
light: AIQLTQSPSSLSASVGDRVTITCRASQGISSALAWYQQKPGKAPKLLIYDASSLESGVPSRFSGSGSGTDFTLTISSLQPEDFATYYCQQFNSYPYTFGQGTKLEIKRTVAAPSVFIFPPSDEQLKSGTASVVCLLNNFYPREAKVQWKVDNALQSGNSQESVTEQDSKDSTYSLSSTLTLSKADYEKHKVYACEVTHQGLSSPVTKSFNRGEC
B2: anti-GITR-IgG2-IgG1 (antibody)
heavy: QVQLVESGGGVVQPGRSLRLSCAASGFTFSSYGMHWVRQAPGKGLEWVAVIWYEGSNKYYADSVKGRFTISRDNSKNTLYLQMNSLRAEDTAVYYCARGGSMVRGDYYYGMDVWGQGTTVTVSSASTKGPSVFPLAPCSRSTSESTAALGCLVKDYFPEPVTVSWNSGALTSGVHTFPAVLQSSGLYSLSSVVTVPSSNFGTQTYTCNVDHKPSNTKVDKTVERKCCVE[left out - human IgG1 Fc]
light: B1 light
B3: anti-GITR-IgG1.1 (antibody)
heavy: QVQLVESGGGVVQPGRSLRLSCAASGFTFSSYGMHWVRQAPGKGLEWVAVIWYEGSNKYYADSVKGRFTISRDNSKNTLYLQMNSLRAEDTAVYYCARGGSMVRGDYYYGMDVWGQGTTVTVSSASTKGPSVFPLAPSSKSTSGGTAALGCLVKDYFPEPVTVSWNSGALTSGVHTFPAVLQSSGLYSLSSVVTVPSSSLGTQTYICNVNHKPSNTKVDKKVEPKSCDKTHTCPPCPAPEAEGAPSVFLFPPKPKDTLMISRTPEVTCVVVDVSHEDPEVKFNWYVDGVEVHNAKTKPREEQYNSTYRVVSVLTVLHQDWLNGKEYKCKVSNKALPSSIEKTISKAKGQPREPQVYTLPPSREEMTKNQVSLTCLVKGFYPSDIAVEWESNGQPENNYKTTPPVLDSDGSFFLYSKLTVDKSRWQQGNVFSCSVMHEALHNHYTQKSLSLSPG
light: B1 light

Biological target: T1, human GITR on cells
Assay: FACS binding to activated human CD4 T cells

Binder	EC50 [nM]
B1	0.257
B2	0.203
B3	0.286
